Test results taken from patent US20240299446A1, “COMPOSITION FOR PREVENTING, TREATING OR IMPROVING CALCIUM RELATED DEGENERATIVE DISEASES, OSTEOPOROSIS OR CANCERS COMPRISING SIGMA ANTI-BONDING MOLECULE CALCIUM GLUCONATE” (priority 2023, published 2024).

Test system: ovariectomy (OVX) rats
Test: Blood biochemical analysis in ovariectomized rats
Settings: serum at 12 weeks post-surgery; mean ± SD, 5 rats

Substance: Sigma Anti-bonding Molecule Calcium gluconate [SAC gluconate]
- TC: 63.0 ± 15.3 mg/dL
- TG: 18.6 ± 6.7 mg/dL
- TP: 4.9 ± 0.2
